scFv variants of Ab-14 (light chain) against a SARS-CoV-2 spike peptide

All variants were tested on one target, the spike HR2 peptide PDVDLGDISGINAS (SARS-CoV-2).

The variants keep the heavy chain, the linker and the frameworks of Ab-14 (scFv order VH, the linker GGGGSGGGGSGGGGS, VL).
VH: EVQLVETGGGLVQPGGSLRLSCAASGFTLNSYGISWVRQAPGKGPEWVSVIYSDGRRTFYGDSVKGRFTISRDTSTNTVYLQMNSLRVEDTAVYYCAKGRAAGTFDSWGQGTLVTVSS
VL: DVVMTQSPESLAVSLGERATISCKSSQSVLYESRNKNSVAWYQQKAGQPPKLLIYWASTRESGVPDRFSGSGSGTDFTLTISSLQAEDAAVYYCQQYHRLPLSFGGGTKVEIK

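The parent was found by panning a naive human phage display library on the peptide. Designed CDR sequences, proposed from the first random library and measured here. Group labels follow the data file (Ctrl: baseline library sampled from a position-specific scoring matrix, with some repeated check sequences; Rand: our label for a block that the file lists under HC and that is probably the random mutants of the ten best first-round binders; GP: Gaussian process model; HC: hill climbing; Gen: genetic algorithm; Gibbs: Gibbs sampling; a sequence that several methods proposed may carry one label only). The scFvs were displayed on barcoded MATa yeast, the peptide on MATalpha yeast. Binding brings cells together so that they mate, and sequencing counts the barcode pairs among the diploids. A regression on co-assayed BCL2-family reference pairs converts the normalised counts of each replicate to an apparent Kd. The assay was run in six technical replicates.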

Variants are written as CDR1, CDR2 and CDR3 of the light chain (limits as in the source). Parent: KSSQSVLYESRNKNSVA, WASTRES, QQYHRLPLS.
Variants here have at most six changes.
Kd is apparent (estimated from mating counts) and averaged on the log scale over replicates with a signal. Smaller is tighter.
"not detected" marks a missing value. The strain was present, yet no cells mated with the target were sequenced in any replicate, which points to weak or no binding.

CDR-L1,CDR-L2,CDR-L3,group,Kd,detected
KQSQSVLYESSNKWSVA,YASTRES,QQYHRLPLS,Ctrl,not detected,0 of 6
KLQQSQLYESRNKNSVA,HASTRES,QQYHRLPLS,GP_Gen,690 pM,6 of 6
KLSSSVLYESRNKNSVA,EASTRES,QQYHRLPLS,GP_Gen,1.9 nM,6 of 6
KMSQSVLYESRNKNSVA,AASTRES,QQYAGLPLS,Ctrl,1.5 nM,6 of 6
DLSQSWLYESRNKNSVA,GASTRES,QQYHRLPLS,GP_HC,370 pM,6 of 6
KSSQSYEYESRNKNSVA,GASTRES,QQYHRLPLS,GP_HC,960 pM,6 of 6
KLMQSDLYESRNKNSVA,NASQRES,QQYHRLPLS,GP_Gen,1.4 nM,6 of 6
KSLQSTLYESRNFNSVA,HASTRED,QQYHRLPLS,GP_HC,1.0 nM,6 of 6
KVQQSHLYESRNKNSVA,NASTRCS,QQYHRLPLS,GP_Gen,2.1 nM,6 of 6
KLSQSVLYEERNKNSVA,NASQRES,QQYHRLPLS,GP_Gen,360 pM,6 of 6
KLQQSMLYESRNKNSVA,HASTRES,QQYHRLPLS,GP_Gen,1.1 nM,6 of 6
HLSQSVLYESRNKNSVA,NASTRMQ,QQYHRLPLS,GP_Gen,730 pM,6 of 6
KSSFSGLYESRMKNSVA,EASTRES,QQYHRLPLS,GP_HC,2.0 nM,6 of 6
KVSQSHLYESRNKNNVA,EASTRES,QQYHRLPLS,GP_Gen,370 pM,6 of 6
KSSVSVLSESRNKNSVA,AASTRES,QQYHRLPLS,Ctrl,9.2 nM,6 of 6
KLSWSWLYESRNWNSVA,DASTRES,QQYHRLPLS,GP_Gibbs,780 pM,6 of 6
KSEQSWPYESRNKNSVA,NASTRES,QQYHRLPLS,GP_Gen,800 pM,6 of 6
KLPQLVLYESRNKNSVA,GASTRES,QQYHRLPLS,GP_HC,730 pM,6 of 6
KLEQSQLYESRNKNSVA,NASTRLS,QQYHRLPLS,GP_Gen,550 pM,6 of 6
KSSQSVLREERNKNSVA,WASTRDS,QQYHRLPLS,Ctrl,not detected,0 of 6
KASQSVIYESRNKNSVA,AASTRES,QQYSRLPLS,Ctrl,2.0 nM,6 of 6
KRSQSVLYESRNKNSVA,EASTRES,QQYHRLPLS,Ctrl,2.2 nM,6 of 6
KSSQSVLKESDNKNSVA,SASTRES,QQYHMLPPS,Ctrl,360 nM,2 of 6
KLRQSTLYESRNKNSVA,LASTRFS,QQYHRLPLS,Rand,28 nM,6 of 6
KVSQSQLYESRNKNSVA,NASTRES,QSYHRLPLS,GP_Gen,480 pM,6 of 6
KLSQSVLYESRNKNSVA,EASQRED,QQYHRLPLS,GP_Gen,400 pM,6 of 6
KSSQEVLYYSRNKNSVA,WASTRES,QQYHRLPLS,Ctrl,25 nM,1 of 6
KLSQSDLYESRNKNSVA,EASQRES,QQYHRLPLS,GP_Gen,720 pM,6 of 6
KLSQSVLYESRNKNSVA,HASTRED,QSYHRLPLS,GP_HC,1.2 nM,6 of 6
KLSQSVLYESRQKNNVA,NASTRES,QQYHRLPLS,GP_Gen,590 pM,6 of 6
KVSQSWLYESRNFWSVA,NASTRES,QQYHRLPLS,GP_HC,1.1 nM,6 of 6
KLSGSVLGESRNKNSVA,SADTRLS,QQYHRLPLS,GP_Gibbs,2.5 nM,5 of 6
KLSESFLYESRWKNSVA,DASTREE,QQYHRLPLS,GP_Gibbs,550 pM,6 of 6
KLSQSVLYDSQNKNSVA,NASTRES,QQYHRLPLS,GP_HC,1.8 nM,6 of 6
KLQQSELYESRNKNSVA,NASQRMS,QQYHRLPLS,GP_Gen,1.8 nM,6 of 6
KSSQSWLYESRNKNSVA,GASTRER,QQYHRLPLS,GP_HC,1.3 nM,6 of 6
KSQQSVPYEDRNKNSVA,EASTRCS,QDYHRLPLS,GP_Gibbs,1.5 nM,6 of 6
KSSDSVLYESMNKNNVC,WASTRES,QQYHRLPIS,Ctrl,3.6 µM,2 of 6
KLSQSVWYESRNKNSVA,NASTREQ,QQYHRLPLS,GP_Gen,710 pM,6 of 6
KSSISWLYESRMKNSVA,EASTRES,QQYHRLPLS,GP_HC,620 pM,6 of 6
KSSQPELYESRNKNSVA,DVSTRES,QQYHRLPLS,Ctrl,900 pM,6 of 6
KSSQSVLYQSRNQNSVA,AASTRES,QQYHGLPLS,Ctrl,6.0 nM,6 of 6
NLSQSVLYESRNKNSVA,GGNTRES,QQYHRLPLS,GP_HC,560 pM,6 of 6
KFSQSVLYESRVKNSVA,NASTRES,QQYHRLPLS,GP_HC,930 pM,6 of 6
KFEQSDLYESRNKNSVA,NASQRES,QQYHRLPLS,GP_Gen,890 pM,6 of 6

Excerpt, the first 8 entries:

CDR-L1,CDR-L2,CDR-L3,group,Kd,detected
KQSQSVLYESSNKWSVA,YASTRES,QQYHRLPLS,Ctrl,not detected,0 of 6
KLQQSQLYESRNKNSVA,HASTRES,QQYHRLPLS,GP_Gen,690 pM,6 of 6
KLSSSVLYESRNKNSVA,EASTRES,QQYHRLPLS,GP_Gen,1.9 nM,6 of 6
KMSQSVLYESRNKNSVA,AASTRES,QQYAGLPLS,Ctrl,1.5 nM,6 of 6
DLSQSWLYESRNKNSVA,GASTRES,QQYHRLPLS,GP_HC,370 pM,6 of 6
KSSQSYEYESRNKNSVA,GASTRES,QQYHRLPLS,GP_HC,960 pM,6 of 6
KLMQSDLYESRNKNSVA,NASQRES,QQYHRLPLS,GP_Gen,1.4 nM,6 of 6
KSLQSTLYESRNFNSVA,HASTRED,QQYHRLPLS,GP_HC,1.0 nM,6 of 6

Values of this round are not directly comparable with the first-round values of the same sequences.
The authors averaged sequences with at least three values out of six and counted those with two or fewer as poor binders.
The parent sequence was in this pool as ten entries: three were never detected, three once, and four in most replicates, with averages from 2.2 nM to 240 nM.
Background: pairings of all light chain designs with three empty control strains gave a value in 4% of cases (median 430 nM, 5th percentile 38 nM). Values in that range, when seen in few replicates, are hard to tell from nonspecific mating.

Reference: Li et al. 2023, doi:10.1038/s41467-023-39022-2. File: FLAb, binding data.